Source: US20200197398A1, “NETARSUDIL AND LOW-DOSE BRIMONIDINE COMBINATION AND USES THEREOF” (Eye Therapies, LLC, priority 2017, published 2020)

Experiments:
[1] = Prophetic intraocular pressure reduction, brimonidine and latanoprost (Example 1); settings: 0.035% brimonidine, 0.005% latanoprost, or combination of 0.03% brimonidine and 0.005% latanoprost; topical
[2] = Prophetic intraocular pressure reduction, brimonidine and netarsudil (Example 3); settings: 0.0675% w/v brimonidine, 0.02% w/v netarsudil, or their combination; topical

Brc1c(N=C2NCCN2)ccc2nccnc12.O=C(O)C(O)C(O)C(=O)O [brimonidine, 5-bromo-6-(2-imidazolin-2-ylamino)quinoxaline D-tartrate]
ocular hyperemia (side effect) [1]: not observed
ocular hyperemia (side effect) [2]: not observed
